Results reported in publication PMC7076694, “The Qi Site of Cytochrome b is a Promiscuous Drug Target in Trypanosoma cruzi and Leishmania donovani” (ACS Infectious Diseases, 2020).

Chains of the proteins cited; added tags and fusions are not shown.
UniProt A5HU08, entry or part of it: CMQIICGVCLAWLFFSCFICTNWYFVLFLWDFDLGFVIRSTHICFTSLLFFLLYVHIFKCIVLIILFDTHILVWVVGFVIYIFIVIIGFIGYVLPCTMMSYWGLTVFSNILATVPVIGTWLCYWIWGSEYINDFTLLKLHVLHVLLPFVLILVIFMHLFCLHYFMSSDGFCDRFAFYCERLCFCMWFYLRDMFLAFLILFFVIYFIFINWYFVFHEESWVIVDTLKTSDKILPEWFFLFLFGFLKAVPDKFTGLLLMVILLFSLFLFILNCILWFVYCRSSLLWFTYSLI
UniProt Q9T479, entry or part of it: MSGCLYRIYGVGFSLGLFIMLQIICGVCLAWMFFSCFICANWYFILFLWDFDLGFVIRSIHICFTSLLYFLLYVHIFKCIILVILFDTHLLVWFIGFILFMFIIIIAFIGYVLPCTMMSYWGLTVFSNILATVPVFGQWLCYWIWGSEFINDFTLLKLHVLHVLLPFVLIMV

How the values were obtained:
[1] = target: complex III (cytochrome bc1 complex) (Leishmania donovani, UniProt A5HU08); experiment: biochemical; type: biochemical
[2] = target: complex III (cytochrome bc1 complex) (Trypanosoma cruzi, UniProt Q9T479); experiment: Complex III (cytochrome c reduction) assay, T. cruzi lysate; type: biochemical; details: mitochondria-enriched lysate of epimastigotes
[3] = test system: complex III (cytochrome bc1 complex); experiment: biochemical; type: biochemical, Leishmania donovani; details: complex III
[4] = test system: L. donovani promastigotes; type: cell-based, Leishmania donovani; details: relative to wild-type

CCCCCC[C@H]1C(=O)O[C@H](C)[C@H](NC(=O)c2cccc(NC=O)c2O)C(=O)O[C@@H](C)[C@@H]1OC(=O)CC(C)C [antimycin A, reference compound]
IC50 [1]: 25 ± 2 nM | IC50 [2]: 14 ± 3 nM

Cc1nn2c(=O)c(Cc3ccc(Cl)cc3)c(C)[nH]c2c1C [compound 1]
fold-change in sensitivity compared to wild-type, Compound 1 RES1 lysate ([3]; L. donovani Compound 1 RES1 vs WT): 5 fold

Cc1cc(C)c2c(N)c(C(=O)N3CCC(C)(C)c4ccccc43)sc2n1 [compound 2]
relative sensitivity of L. donovani promastigotes bearing cytochrome b C222F mutation ([4]; compound 1-selected clone): hypersensitive | relative sensitivity of L. donovani promastigotes bearing cytochrome b G37A mutation ([4]; compound 1-selected clones): hypersensitivity | fold-change in sensitivity compared to wild-type, Compound 2 RES3 lysate ([3]; L. donovani Compound 2 RES3 vs WT): 42 fold
